{"source": "paper PMC12737281", "about": "“In Situ Evaluation of the GSH Depletion Ability of Various Alkylating Agents and the Protective Effect of Several Active Thiol Compounds Based on High-Content Cell Analysis” (2025)", "test_system": "intracellular GSH in HaCaT cells", "details": "HaCaT cells co-incubated with 10 μM NEM for 24 h", "data": [{"smiles": "CCN1C(=O)C=CC1=O", "values": [{"measurement": "change of mBCL fluorescence intensity (intracellular GSH)", "value": "significant decrease in fluorescence intensity"}]}]}
